The nature of the series: Dose-dependent neurological toxicity in mice. To be noted: up to 80 mg/kg body weight/dose, per orally every 24 hours.

As for `COc1ccc(C(=O)N2c3ccccc3Sc3ccc(Cl)cc32)cc1` [iPAP1], the neurological toxicity entry is listed as “did not show any neurological toxicity”.

(Values after patent US20220062291A1, “COMPOSITIONS AND METHODS OF TREATING CANCERS BY ADMINISTERING A PHENOTHIAZINE-RELATED DRUG THAT ACTIVATES PROTEIN PHOSPHATASE 2A (PP2A) WITH REDUCED INHIBITORY ACTIVITY TARGETED TO THE DOPAMINE D2 RECEPTOR AND ACCOMPANYING TOXICITY” (DANA-FARBER CANCER INSTITUTE, INC., priority 2018, published 2022).)
